In US6515010B1 (SmithKline Beecham Corporation, priority 1999, dated 2003):

Test: pH-dependent solubility of carvedilol
Details: salt formed in-situ in an acidic medium, such as simulated gastric fluid

## Hydrochloride
  solubility in water relative to carvedilol: less soluble in water than carvedilol itself
